Assays:
Bcl-2 = Bcl-2 (Homo sapiens, UniProt P10415); assay: Fluorescence polarization-based; conditions: FP competitive binding
Bcl-xL = Bcl-xL (Homo sapiens, UniProt Q07817); assay: Fluorescence polarization-based; conditions: read-out: Binding Affinities Bcl-xL Ki ± SD; FP competitive binding

Chains of the proteins cited; added tags and fusions are not shown.
UniProt P10415, whole entry: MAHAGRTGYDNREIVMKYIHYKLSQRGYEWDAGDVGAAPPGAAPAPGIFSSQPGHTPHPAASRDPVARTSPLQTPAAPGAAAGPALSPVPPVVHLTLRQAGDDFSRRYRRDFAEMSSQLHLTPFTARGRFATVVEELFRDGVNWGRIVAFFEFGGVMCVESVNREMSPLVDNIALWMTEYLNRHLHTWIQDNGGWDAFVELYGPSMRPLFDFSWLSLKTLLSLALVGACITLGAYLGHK
UniProt Q07817, whole entry: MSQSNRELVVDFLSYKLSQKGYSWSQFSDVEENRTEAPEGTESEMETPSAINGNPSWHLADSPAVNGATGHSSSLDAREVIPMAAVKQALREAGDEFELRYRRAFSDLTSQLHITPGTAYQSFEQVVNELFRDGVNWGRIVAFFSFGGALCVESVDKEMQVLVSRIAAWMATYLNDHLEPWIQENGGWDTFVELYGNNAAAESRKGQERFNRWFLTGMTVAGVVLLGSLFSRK

In the case of “(R)-5-(4-Chlorophenyl)-4-(3-(4-(4-(((4-((4-(dimethylamino)-1-(phenylthio)butan-2-yl)amino)phenyl)sulfonyl)carbamoyl)phenyl)piperazin-1-yl)phenyl)-1,2-dimethyl-N-(3-(4-methylpiperazin-1-yl)propyl)-1H-pyrrole-3-carboxamide [Compound 9]”, the IC50 (Bcl-2; read-out: Binding Affinities Bcl-2 IC50 ± SD) is reported as 29 ± 8 nM, the Ki (Bcl-2; read-out: Binding Affinities Bcl-2 Ki ± SD) is reported as 7 ± 2 nM and the Ki (Bcl-xL) is reported as 1.3 nM.

— paper PMC3417242 (Journal of medicinal chemistry, 2012)
